What all share (type): cell-based
In experiment [1] the target is T1, HS (high sensitivity) α4β2-nAChRs (Homo sapiens, UniProt P17787+P43681).
T1 construct: expressed in transfected cells; host or cells: SH-EP1 human epithelial cells (SH-EP1-hα4β2)
The experiment can be described thus: 86Rb+ ion efflux assay, HS α4β2 efficacy by regression on sazetidine-A efficacy. The following applies: relative to carbamylcholine. From the text: (§1) Cell lines naturally or heterologously expressing specific, functional, human nAChR subtypes were used. The human clonal cell line TE671/RD naturally expresses human muscle-type α1*-nAChRs, containing α1, β1, γ, and δ subunits, with function detectable using ^86Rb^+ efflux assays. […] These cells heterologously express human nAChR chimeric (α6/3) subunits (wherein the extracellular, N-terminal, ligand-binding domain of the human nAChR α6 subunit replaces that domain in the nAChR α3 subunit) along with human β2 and β3 subunits. […] Cells were passaged once a week by splitting just-confluent cultures 1/300 (TE671/RD), 1/10 (SH-SY5Y), or 1/40 (transfected SH-EP1) in serum-supplemented medium to maintain log-phase growth.
(§2) One newer modification on these techniques involves low temperature incubation before assays to increase the surface expression of high sensitivity (HS) relative to low sensitivity (LS) α4β2 nAChRs and to enhance surface expression of (α6/3)β2β3-nAChRs. […] In brief, this allows us to determine efficacies of test compounds at LS and HS α4β2 nAChRs, respectively, as the ordinate values of the linear regressions at abscissa values of 0% and 100% of sazetidine-A efficacy.
(§3) Results are normalized to responses to a fully efficacious concentration of carbamylcholine (see Materials and Methods for details). […]

Protein sequences, listed by entry. Tags and fused reporters are not part of them. Lines headed by an entry give the natural chain unless they say otherwise; changes in a name come on top. Residues count along the entry.
UniProt P17787, 26-502: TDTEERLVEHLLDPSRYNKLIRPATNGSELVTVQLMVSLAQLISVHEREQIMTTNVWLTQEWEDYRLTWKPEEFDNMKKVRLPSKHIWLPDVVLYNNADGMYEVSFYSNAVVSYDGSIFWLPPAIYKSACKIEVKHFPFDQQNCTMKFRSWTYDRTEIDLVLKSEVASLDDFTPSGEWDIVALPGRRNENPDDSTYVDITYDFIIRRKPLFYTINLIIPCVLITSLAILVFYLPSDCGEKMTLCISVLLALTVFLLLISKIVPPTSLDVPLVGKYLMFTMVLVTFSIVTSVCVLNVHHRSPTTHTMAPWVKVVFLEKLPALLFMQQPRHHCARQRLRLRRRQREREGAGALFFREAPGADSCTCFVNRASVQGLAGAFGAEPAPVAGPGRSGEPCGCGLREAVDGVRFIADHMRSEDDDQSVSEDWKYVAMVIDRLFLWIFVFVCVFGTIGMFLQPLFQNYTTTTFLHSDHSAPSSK
UniProt P43681, 29-627 limits assumed: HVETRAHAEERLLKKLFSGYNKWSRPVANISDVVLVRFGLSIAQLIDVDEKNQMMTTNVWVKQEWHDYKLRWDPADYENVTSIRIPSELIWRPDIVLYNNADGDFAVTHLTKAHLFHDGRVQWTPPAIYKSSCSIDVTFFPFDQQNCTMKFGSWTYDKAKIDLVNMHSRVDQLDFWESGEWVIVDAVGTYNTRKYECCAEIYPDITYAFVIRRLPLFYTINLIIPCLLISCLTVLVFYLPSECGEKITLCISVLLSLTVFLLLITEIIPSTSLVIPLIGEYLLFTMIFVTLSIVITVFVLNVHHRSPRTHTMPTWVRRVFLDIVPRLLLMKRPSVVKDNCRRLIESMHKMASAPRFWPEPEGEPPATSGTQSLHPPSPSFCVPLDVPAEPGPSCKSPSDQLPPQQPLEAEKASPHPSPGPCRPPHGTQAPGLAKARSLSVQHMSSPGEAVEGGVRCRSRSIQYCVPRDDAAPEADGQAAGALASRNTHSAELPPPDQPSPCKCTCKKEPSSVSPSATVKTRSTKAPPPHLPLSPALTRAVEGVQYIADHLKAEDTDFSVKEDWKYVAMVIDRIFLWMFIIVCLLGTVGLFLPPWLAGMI
UniProt P32297: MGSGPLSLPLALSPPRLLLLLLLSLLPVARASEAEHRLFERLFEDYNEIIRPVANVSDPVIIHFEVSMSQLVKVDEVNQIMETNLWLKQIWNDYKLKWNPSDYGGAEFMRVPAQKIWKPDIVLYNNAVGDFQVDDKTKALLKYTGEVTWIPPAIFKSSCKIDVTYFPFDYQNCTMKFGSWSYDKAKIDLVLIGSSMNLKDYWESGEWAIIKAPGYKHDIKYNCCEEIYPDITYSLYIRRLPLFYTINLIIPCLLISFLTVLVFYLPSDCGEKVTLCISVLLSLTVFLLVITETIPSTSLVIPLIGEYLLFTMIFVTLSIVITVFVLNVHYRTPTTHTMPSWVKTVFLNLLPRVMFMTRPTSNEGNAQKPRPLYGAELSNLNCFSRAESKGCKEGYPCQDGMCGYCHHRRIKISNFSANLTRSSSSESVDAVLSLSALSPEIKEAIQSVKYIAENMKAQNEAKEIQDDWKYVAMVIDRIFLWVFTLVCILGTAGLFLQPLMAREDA
UniProt Q15825: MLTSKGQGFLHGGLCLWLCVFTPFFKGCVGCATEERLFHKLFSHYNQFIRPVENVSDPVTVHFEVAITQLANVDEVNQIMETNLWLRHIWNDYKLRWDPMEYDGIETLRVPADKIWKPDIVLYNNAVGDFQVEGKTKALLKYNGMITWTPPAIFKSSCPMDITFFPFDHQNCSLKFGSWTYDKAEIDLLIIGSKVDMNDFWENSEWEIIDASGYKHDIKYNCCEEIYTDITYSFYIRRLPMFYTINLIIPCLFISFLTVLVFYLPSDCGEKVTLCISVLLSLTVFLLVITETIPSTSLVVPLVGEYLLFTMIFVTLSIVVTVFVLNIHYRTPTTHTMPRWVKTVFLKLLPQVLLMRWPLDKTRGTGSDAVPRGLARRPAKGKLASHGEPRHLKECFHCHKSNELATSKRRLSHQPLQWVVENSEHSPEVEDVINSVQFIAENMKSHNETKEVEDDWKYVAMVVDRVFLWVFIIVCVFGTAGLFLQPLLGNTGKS

A further experiment concerns the target T2, human (α6/3)β2β3-nAChR (Homo sapiens, UniProt P17787+P32297+Q15825).
T2 construct: expressed in transfected cells; host or cells: SH-EP1 human epithelial cells (SH-EP1-h(α6/3)β2β3)
The experiment can be described thus: 86Rb+ ion efflux assay, SH-EP1-h(α6/3)β2β3 cells.
From the text: as §1, §2, §3

For experiment [2], the target named is T3, LS (low sensitivity) α4β2-nAChRs (Homo sapiens, UniProt P17787+P43681).
T3 construct: expressed in transfected cells; host or cells: SH-EP1 human epithelial cells (SH-EP1-hα4β2)
The experiment can be described thus: 86Rb+ ion efflux assay, LS α4β2 efficacy by regression on sazetidine-A efficacy. The following applies: relative to carbamylcholine.
From the text: as §1, §2, §3

Molecules are shown by their SMILES.

One compound from article PMC4184702 (Pharmacology Research & Perspectives, 2014) can be followed below.

In the case of `CN1CCC[C@H]1c1cccnc1` [Nicotine], the “Agonism α4β2-nAChR HS Efficacy” value in experiment [1] came to 124 ± 8.5%. Further, the “Agonism (α6/3)β2β3-nAChR Efficacy” value at human (α6/3)β2β3-nAChR (normalized to a full agonist) was determined as 56 ± 0.06. In addition, the “Inactivation (α6/3)β2β3-nAChR Efficacy” value at human (α6/3)β2β3-nAChR (normalized to a full antagonist) is given as 26 ± 1.4%. Besides, the “Agonism α4β2-nAChR LS Efficacy” value in experiment [2] is 70 ± 5.9%.
